# Laboratory results: paper PMC7355633
# Target: VX-inhibited hAChE (Homo sapiens, UniProt P22303)
# Assay: Reactivability of VX-inhibited hAChE by mice plasma sampled after i.p. oxime (pharmacodynamic clearance)
# Conditions: 23.3 µmol/kg i.p.
compound,measurement,value
O/N=C/c1nc(CCCCNc2c3c(nc4ccccc24)CCCC3)ccc1O,React Max (peak of reactivability),5.1 ± 1.1%
